{"source": "patent US12491253B2", "about": "“Bicyclic peptide ligands specific for MT1-MMP” (BicycleRD Limited, priority 2018, dated 2025)"}
{"molecular_target": "MT1-MMP Hemopexin domain (PEX) (Homo sapiens, UniProt P50281)", "test": "Human Fluorescence Polarisation Competition Binding Assay", "settings": "Human MT1-MMP FP competition binding; tracer 17-88-N006 at 1 nM; molecular scaffold TBMB", "from_the_text": "Due to its high affinity to the MT1-MMP Hemopexin domain (PEX), the fluoresceinated derivative of 17-88-N006 (SEQ ID NO: 28) can be used for competition experiments (using FP for detection). Here, a preformed complex of PEX with the fluorescent PEX-binding tracer (in all experiments-ACPYSWETCLFGDYRCA[Sar]6[KFI] (17-88-N006) (SEQ ID NO: 28)) is titrated with free, non-fluoresceinated bicyclic peptide. Since all 17-69-based peptides are expected to bind at the same site, the titrant will displace the fluorescent tracer from PEX. Dissociation of the complex can be measured quantitatively, and the Kd of the competitor (titrant) to the target protein determined. The advantage of the competition method is that the affinities of non-fluoresceinated bicyclic peptides can be determined accurately and rapidly. […] Subsequently, the non-fluorescent competitor bicyclic peptide (usually just the bicycle core sequence) is titrated, such that it displaces the fluorescent tracer from the target protein. The displacement of the tracer is measured and associated with a drop in fluorescence polarisation. The drop in fluorescence polarisation is proportional to the fraction of target protein bound with the non-fluorescent titrant, and thus is a measure of the affinity of titrant to target protein.\nThe raw data is fit to the analytical solution of the cubic equation that describes the equilibria between fluorescent tracer, titrant, and binding protein. The fit requires the value of the affinity of fluorescent tracer to the target protein, which can be determined separately by direct binding FP experiments (see next section). The curve fitting was performed using Sigmaplot 12.0 and used as an adapted version of the equation described by Zhi-Xin Wang (FEBS Letters (1995) 360, 111-114).", "units": {"Ki": "nM"}}
{"substance": "[DOTA]-G-[Sar]5-(SEQ ID NO: 2) [BCY1388]", "Ki": "81.3 ± 32.6"}
{"substance": "A-(SEQ ID NO: 3)-A [BCY1029]", "Ki": 503}
{"substance": "A-(SEQ ID NO: 12)-A [BCY1039]", "Ki": 177}
{"substance": "Ac-(SEQ ID NO: 2) [BCY1027]", "Ki": "92.7 ± 68.5"}
{"substance": "A-(SEQ ID NO: 8)-A [BCY1035]", "Ki": 391}
